Measured values from patent US8948863B2, “Photokinetic ocular drug delivery methods and apparatus” (priority 2009, dated 2015).

How the values were obtained:
[1] = Rabbit ocular drug delivery model: human insulin concentration in eye fluids and tissues by ELISA; settings: 60 minute exposure
[2] = Franz cell sclera tissue permeation, PODD (pulsed LED light) vs passive controls; settings: for flux rate vs. controls: 24 hours
[3] = Histological examination of Franz cell mounted sclera after PODD exposure; set-up: species or system ovine; settings: insulin formulation, 24 hour 405 nm PODD exposure
Method: (§1) Sclera samples were taken and placed in formalin as follows: Normal control sclera with no exposure to drug or light, Franz cell 60 minute control drug only exposure and Franz cell 60 minute exposure to both drug and 350 nm LED light. Fixed slides were evaluated for structural integrity and gross appearance by a pathologist blinded as to the origin of the sample tissue.
as §1, with “Normal” for “Sclera samples were taken and placed in formalin as follows: Normal”, “light were taken and placed in formalin.” for “light.”, “masked” for “blinded”

[4] = Passive Delivery eye (no light exposure)

## insulin
[1]; Passive Contralateral eye
  Insulin, Aqueous Humor: 2 μU/mL
  Insulin, Cornea: 22 μU/gram Tissue/mg Protein
  Insulin, Neural Retina: 0.98 μU/gram Tissue/mg Protein
  Insulin, RPE Coroid: 0.65 μU/gram Tissue/mg Protein
  Insulin, Sclera: 56 μU/gram Tissue/mg Protein
  Insulin, Vitreous Humor: 2 μU/mL
[1]; [4]
  Insulin, Aqueous Humor: 2 μU/mL
  Insulin, Cornea: 200 μU/gram Tissue/mg Protein
  Insulin, Neural Retina: 1.3 μU/gram Tissue/mg Protein
  Insulin, RPE Coroid: 0.89 μU/gram Tissue/mg Protein
  Insulin, Sclera: 200 μU/gram Tissue/mg Protein
  Insulin, Vitreous Humor: 4 μU/mL
[1]; Photokinetic Contralateral eye
  Insulin, Aqueous Humor: 40 μU/mL
  Insulin, Cornea: 22 μU/gram Tissue/mg Protein
  Insulin, Neural Retina: 2.5 μU/gram Tissue/mg Protein
  Insulin, RPE Coroid: 3.75 μU/gram Tissue/mg Protein
  Insulin, Sclera: 98 μU/gram Tissue/mg Protein
  Insulin, Vitreous Humor: 6 μU/mL
[1]; Photokinetic exposure eye
  Insulin, Aqueous Humor: 114 μU/mL
  Insulin, Cornea: 1500 μU/gram Tissue/mg Protein
  Insulin, Neural Retina: 28 μU/gram Tissue/mg Protein
  Insulin, RPE Coroid: 31 μU/gram Tissue/mg Protein
  Insulin, Sclera: 1498 μU/gram Tissue/mg Protein
  Insulin, Vitreous Humor: 118 μU/mL
[2]; 405 nm PODD group, 24 CPS, 200 IUs/mL
  flux rate vs. controls: 2 times
[2]; 450 nm PODD group, 24 CPS, 200 IUs/mL
  flux rate vs. controls: 7 times
[2]; both light groups (405 and 450 nm), 24 hour time point, p<0.05
  levels of insulin recovered: significant
[2]; both wavelengths (405 nm and 450 nm), 24 CPS, 200 IUs/mL
  insulin permeation through the scleral tissue, PODD cells vs. controls: improvement
[3]
  histological examination, PODD exposure compared to passive control and normal sclera: no differences between the samples
  structural integrity of the sclera: grossly intact and undamaged
